# Laboratory results taken from ChEMBL document CHEMBL1152513, “Synthesis and characterizations of novel quinoline derivatives having mixed ligand activities at the kappa and mu receptors: Potential therapeutic efficacy against morphine dependence” (Bioorg Med Chem, 2009).
# The chains behind the UniProt entries cited, without tags or fusion partners.
# UniProt P33535, whole entry: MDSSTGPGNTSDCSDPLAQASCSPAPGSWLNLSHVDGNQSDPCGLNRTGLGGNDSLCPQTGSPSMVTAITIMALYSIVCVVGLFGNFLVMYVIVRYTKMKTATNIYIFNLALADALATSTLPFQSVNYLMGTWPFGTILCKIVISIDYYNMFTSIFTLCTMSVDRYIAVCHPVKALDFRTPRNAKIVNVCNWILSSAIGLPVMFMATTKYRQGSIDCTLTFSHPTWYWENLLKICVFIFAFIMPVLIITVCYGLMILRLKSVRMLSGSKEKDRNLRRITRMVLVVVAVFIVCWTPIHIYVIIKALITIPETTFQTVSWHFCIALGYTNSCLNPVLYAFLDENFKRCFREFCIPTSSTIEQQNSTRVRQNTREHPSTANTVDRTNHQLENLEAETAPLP
# Target: Mu-type opioid receptor (Rattus norvegicus, UniProt P33535)
# Assay: Displacement of [3H]DAMGO from mu opioid receptor in rat brain
# Format: tissue-based
structure (smiles),measurement,value
C[C@@H](NC(=O)[C@@H](N)Cc1ccc(O)cc1)C(=O)NCC(=O)N(C)[C@@H](Cc1ccccc1)C(=O)NCCO [DAMGO],IC50,1.01 nM
